Measurements reported in US20090062120A1, “Agrochemical Composition” (priority 2005, published 2009).

Format: physicochemical
Conditions: 2,4-D isopropylamine salt 300 g/l
Text: In the form of its amine salts, 2,4-dichlorophenoxyacetic acid tends to crystallize out of concentrated solutions. It is state of the art to use an approximately 5% addition of NMP in order to prevent crystallization. In the present example the isopropylamine salt of 2,4-dichlorophenoxyacetic acid was used, 2,4-D IPA for short.
Concentrated aqueous solutions of 2,4-D in isopropylamine salt form (350 g/l) were admixed with quantities of demineralized water and of the corresponding solvent addition such that the concentration of 2,4-D isopropylamine salt was 300 g/l and that of the solvent under test was 5% v/v. Then the external appearance, instantaneously (see column 2 of Table 5) and after storage at 0° C. (see column 3 of Table 5), and also the external appearance of a 5% (v/v) dilution in water (standard water according to CIPAC method D, containing 500 ppm CaCO3), were observed and recorded (see columns 4 and 5 of Table 5). Particular emphasis was placed on any crystal formation.

[1] = solvent 5% by volume, 5% dilution in water, 24 hours, 30° C.

CCCCOCCOCCOCCCC [Diethylene glycol dibutyl ether]
External appearance of dilution [5% in water] (solvent 5% by volume, 5% (v/v) dilution in water, 500 ppm CaCO3): clear
Crystal formation in dilution [5% in water; 24 hours, 30° C.] [1]: <1%
External appearance of dilution [5% in water; 24 hours, 30° C.] [1]: turbid solution,
External appearance of formulation [25° C.; on day of preparation] (solvent addition 5% by volume, 25° C., day of preparation): clear solution
External appearance of formulation [after 48 hours at 0° C.] (solvent addition 5% by volume, after 48 hours at 0° C.): clear solution
